A word on the Kd: it is the constant that tells how readily two partners part at equilibrium.

This passage reports Kd results from US8536192B2, “6,7-unsaturated-7-carbamoyl substituted morphinan derivative” (priority 2005, dated 2013).

The experiment has as its target opioid μ receptor (Rattus norvegicus (Rat), UniProt P33535). Kind of experiment: Binding assay to opioid μ receptor ([3H]-DAMGO, rat cerebrum membrane). The conditions noted are these: radioligand, rat cerebrum membrane fraction; read-out: KD value obtained by Scatchard plot analysis. On the procedure: 1) Method of Preparing Membrane Specimen for Binding Assay
A rat cerebrum (Slc: SD) which had been stored at −80° C. was used. To a cerebrum which had been weighed was added a 20-fold amount of ice-cooled 10 mM Tris-HCl buffer (pH 7.0), the mixture was homogenized (25000 rpm, 30 seconds) with Histocolon (NITI-ON), and centrifuged at 36600×g for 20 minutes. To the resulting pellet was added 15 ml of the same buffer, and the mixture was treated with Histocolon similarly, and centrifuged. This washing work was performed two times. After centrifugation, to the resulting pellet was added 15 mL of a 50 mM Tris-HCl buffer (pH 7.4), this was treated with Histocolon, and this was finally resuspended in a 10-fold amount of the same buffer, which was used as a crude membrane fraction (Life Sci. 48, 111-116, 1991). The prepared membrane specimen was frozen and stored at −80° C., and at a test, the specimen was rapidly thawed, and diluted to about 900 μg/mL with a 50 mM Tris-HCl buffer (pH 7.4) after the centrifugation and Histocolon treatment, and was used in an experiment. […]
After washing, the filter was transferred to a mini vial for liquid scintillation counter, 5 mL of a scintillator (Cleasol I) was added, and this was allowed to stand overnight, and the radioactivity was measured for 3 minutes with a liquid scintillation counter Tri-Carb 2200CA (PACKARD).

For `C[C@@H](NC(=O)[C@@H](N)Cc1ccc(O)cc1)C(=O)NCC(=O)N(C)[C@@H](Cc1ccccc1)C(=O)NCCO` [[^3H]-DAMGO, reference compound], the equilibrium dissociation constant (Kd) turned out to be 1.72 nM.
